Patent US20220218659

Protein sequences, listed by entry. Tags and fused reporters are not part of them. Lines headed by an entry give the natural chain unless they say otherwise; changes in a name come on top.
UniProt P53396: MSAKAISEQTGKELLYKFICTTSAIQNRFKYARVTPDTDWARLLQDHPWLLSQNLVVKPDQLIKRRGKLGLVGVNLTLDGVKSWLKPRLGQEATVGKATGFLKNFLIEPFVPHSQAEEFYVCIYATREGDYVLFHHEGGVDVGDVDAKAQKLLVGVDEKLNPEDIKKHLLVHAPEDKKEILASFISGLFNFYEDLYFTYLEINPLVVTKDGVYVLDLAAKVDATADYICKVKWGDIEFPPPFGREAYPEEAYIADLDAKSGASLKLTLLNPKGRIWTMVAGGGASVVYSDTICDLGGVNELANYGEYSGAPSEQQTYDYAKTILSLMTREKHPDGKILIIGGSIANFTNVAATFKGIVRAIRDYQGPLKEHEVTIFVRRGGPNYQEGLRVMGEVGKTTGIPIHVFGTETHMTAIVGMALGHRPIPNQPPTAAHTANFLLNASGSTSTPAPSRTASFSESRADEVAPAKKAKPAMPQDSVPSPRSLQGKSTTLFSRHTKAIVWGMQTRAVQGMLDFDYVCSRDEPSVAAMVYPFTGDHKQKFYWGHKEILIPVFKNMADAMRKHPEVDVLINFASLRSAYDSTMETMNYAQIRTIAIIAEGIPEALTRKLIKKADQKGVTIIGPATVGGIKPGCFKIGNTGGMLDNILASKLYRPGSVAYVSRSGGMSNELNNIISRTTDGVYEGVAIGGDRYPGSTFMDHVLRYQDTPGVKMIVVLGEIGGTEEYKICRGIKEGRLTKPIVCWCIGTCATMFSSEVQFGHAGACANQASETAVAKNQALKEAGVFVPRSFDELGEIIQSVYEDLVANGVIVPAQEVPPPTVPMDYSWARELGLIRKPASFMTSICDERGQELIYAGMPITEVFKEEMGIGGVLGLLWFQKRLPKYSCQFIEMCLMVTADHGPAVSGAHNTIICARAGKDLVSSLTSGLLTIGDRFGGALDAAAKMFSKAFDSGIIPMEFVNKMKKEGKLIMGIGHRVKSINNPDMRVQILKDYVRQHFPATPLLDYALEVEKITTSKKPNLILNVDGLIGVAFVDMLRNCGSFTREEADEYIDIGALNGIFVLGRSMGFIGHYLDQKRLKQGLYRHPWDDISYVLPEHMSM

Molecular target: Human ACLY, His-tagged, bacterially expressed and purified recombinant full length protein (UniProt P53396)

Active recombinant Src kinase
number of ACLY tyrosine residues phosphorylated (in vitro kinase assay, phosphoproteomics) (tyrosine residues): 4
